Measurements: patent US6913892

Chains of the proteins cited; added tags and fusions are not shown.
UniProt P49146, whole entry: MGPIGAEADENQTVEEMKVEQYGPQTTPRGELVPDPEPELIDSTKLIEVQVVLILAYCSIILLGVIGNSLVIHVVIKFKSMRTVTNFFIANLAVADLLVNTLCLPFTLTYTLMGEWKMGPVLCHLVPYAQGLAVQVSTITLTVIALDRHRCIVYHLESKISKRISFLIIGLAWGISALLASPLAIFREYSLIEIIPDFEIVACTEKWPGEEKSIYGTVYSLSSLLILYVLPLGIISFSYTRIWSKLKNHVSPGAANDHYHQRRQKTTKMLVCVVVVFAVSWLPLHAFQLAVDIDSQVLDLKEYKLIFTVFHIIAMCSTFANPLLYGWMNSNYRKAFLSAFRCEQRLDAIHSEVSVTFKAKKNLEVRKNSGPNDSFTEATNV
UniProt P25929, whole entry: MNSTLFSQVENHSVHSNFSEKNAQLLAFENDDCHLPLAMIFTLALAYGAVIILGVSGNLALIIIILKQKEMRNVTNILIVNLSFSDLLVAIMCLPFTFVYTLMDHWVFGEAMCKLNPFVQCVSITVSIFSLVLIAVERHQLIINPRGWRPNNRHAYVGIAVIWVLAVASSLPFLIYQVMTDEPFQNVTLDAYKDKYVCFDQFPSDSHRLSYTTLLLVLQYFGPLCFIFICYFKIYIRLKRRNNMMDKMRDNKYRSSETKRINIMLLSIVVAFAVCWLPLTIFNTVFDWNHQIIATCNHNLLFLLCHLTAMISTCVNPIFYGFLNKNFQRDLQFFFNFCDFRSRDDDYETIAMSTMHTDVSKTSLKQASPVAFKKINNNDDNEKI

Legend:
[1] = target: human Y2 receptor (human) (UniProt P49146); experiment: 125I-PYY displacement, COS-7 membranes
[2] = target: human Y1 receptor (human) (UniProt P25929); experiment: 125I-PYY displacement, COS-7 membranes
[3] = target: Y2-like receptor population expressed by human SK-N-Be(2) neuroblastoma cells; experiment: 125I-PYY displacement, SK-N-Be(2) membranes

| Ki [1] [nM] | Ki [2] [nM] | Ki [3] [nM] | Substance |
| --- | --- | --- | --- |
| 0.17 |  |  | PP, salmon (peptide) |
|  |  | 1.8 | porcine NPY13-36 (from UniProt P01304 22-45) (peptide) |

More lines, now with the values behind:

| Substance | Ki [1] [nM] | Ki [2] [nM] | Ki [3] [nM] |
| --- | --- | --- | --- |
| human neuropeptide Y, P01303 29-64 (peptide; C-terminal amide; other documents disagree on this pair) | 0.74 |  |  |
| porcine NPY2-36 (from UniProt P01304 11-45) (peptide) | 1.2 | 1.4 |  |
| porcine neuropeptide Y (from UniProt P01304 10-45) |  |  | 0.28 |
